Source: PMC6100582, “Asymmetric Primaquine and Halogenaniline Fumardiamides as Novel Biologically Active Michael Acceptors” (Molecules : A Journal of Synthetic Chemistry and Natural …, 2018)

Tests used:
[1] = system: Staphylococcus aureus ATCC 6538; assay: Antimicrobial susceptibility assay in vitro (MIC determination); type: cell-based; conditions: ATCC6538
[2] = system: Acinetobacter baumannii MFBF 10913; assay: as above; type: cell-based; conditions: MFBF10913, 18 h
Experimental: (§1) (b) Other Gram-positive (Streptococcus pneumoniae MFBF 10373, Bacillus cereus ATCC 11778, and Bacillus subtilis ATCC 6633) and Gram-negative bacteria species (Pseudomonas aeruginosa ATCC 27853, Escherichia coli ATCC 10536, Serratia marcescens ATCC 10905, Proteus mirabilis MFBF 10430, Acinetobacter baumannii MFBF 10913, and Salmonella enteritidis MFBF 11945): […] Cell suspensions were prepared from stock cultures using phosphate-buffered saline (PBS) (Gibco Laboratories, USA) pH 7.4 and adjusted to 0.5 McFarland units using a nephelometer (ATB 1550, BioMérieux, France). Stock solutions of the tested compounds were prepared in DMSO (10 mg/mL). […] The absorbance was recorded at 540 nm. As a positive quality control (susceptibility of strains) tetracycline hydrochloride (TC) (Sigma-Aldrich) was added into wells.

[3] = system: Bacillus cereus ATCC 11778; assay: as above; type: cell-based; conditions: ATCC11778, 18 h
Experimental: as §1

[4] = system: Bacillus subtilis ATCC 6633; assay: as above; type: cell-based; conditions: ATCC6633, 18 h
Experimental: as §1

[5] = system: Streptococcus pneumoniae MFBF 10373; assay: as above; type: cell-based; conditions: MFBF10373, 18 h
Experimental: as §1

[6] = system: Enterococcus faecalis ATCC 29212; assay: as above; type: cell-based; conditions: ATCC29212, 24 h
[7] = system: Mycobacterium tuberculosis H37Ra; assay: Antimycobacterial susceptibility assay (MIC determination); type: cell-based; conditions: 168 h, 7 days, 37 °C, alamarBlue
Experimental: (c) Mycobacteria: Mycobacterium tuberculosis H37Ra ATCC 25177 was grown in Middlebrook broth (MB), supplemented with Oleic-Albumin-Dextrose-Catalase (OADC) supplement (Difco, Lawrence, KS, USA) and mycobactin J (2 μg/mL). At log phase growth, a culture sample (10 mL) was centrifuged at 15,000 rpm/20 min using a bench-top centrifuge (MPW-65R, MPW Med Instruments, Poland). Following removal of the supernatant, the pellet was washed in fresh Middlebrook 7H9GC broth and re-suspended in fresh, ODAC-supplemented MB (10 mL). The turbidity was adjusted to match McFarland standard No. 1 (3 × 10^8 CFU) with MB broth. A further 1:20 dilution of the culture was then performed in MB broth. The antimicrobial susceptibility of M. tuberculosis was investigated in a 96-well plate format. In these experiments, sterile deionised water (300 µl) was added to all outer-perimeter wells of the plates to minimize evaporation of the medium in the test wells during incubation. Each evaluated compound (100 µL) was incubated with M. tuberculosis (100 µl). […] Following incubation, 10% of alamarBlue (Difco, Lawrence, KS, USA) was mixed into each well, and readings at 570 nm and 600 nm were taken, initially for background subtraction and subsequently after 24 h reincubation. […] For non-interfering compounds, a blue colour in the well was interpreted as the absence of growth, and a pink colour was scored as growth.

[8] = system: Mycobacterium marinum CAMP 5644; assay: as above; type: cell-based; conditions: CAMP5644, 504 h
Experimental: The broth dilution micro-method in Middlebrook 7H9 medium (Difco, Lawrence, KS, USA) supplemented with ADC Enrichment (Becton, Dickinson and Comp.) was used to determine MIC as previously described. […] Bacterial inocula were prepared by transferring colonies from culture to sterile water. The cell density was adjusted to 0.5 McFarland units using a densitometer (Densi-La-Meter, LIAP, Riga, Latvia). The final inoculum was made by 1:1000 dilution of the suspension with sterile water. Drug-free controls, sterility controls and controls consisted of medium and DMSO (Sigma-Aldrich, St. Louis, MO, USA) alone were included. […] Ciprofloxacin (CIP), rifampicin (RIF) and isoniazid (INH) (Sigma-Aldrich, St. Louis, MO, USA) were used as the standards.

[9] = system: Candida albicans ATCC 90028; assay: In vitro antifungal susceptibility testing (MIC determination); type: cell-based; conditions: ATCC90028
in vitro = conditions: African green monkey
Vero cell cultures = conditions: African green monkey

`COc1cc(NC(C)CCCN)c2ncccc2c1` (centres unmarked) [PQ, primaquine] showed an MIC [1] of 50 µg/mL (≈ 193 µM), an MIC [2] of 50 µg/mL (≈ 193 µM) and an MIC [3] of 70 µg/mL (≈ 270 µM). For the same compound, the MIC [4] was 80 µg/mL (≈ 308 µM), the MIC [5] was 50 µg/mL (≈ 193 µM) and the MIC [6] was 128 µg/mL (≈ 494 µM). For the same compound, the MIC [7] was 256 µg/mL (≈ 987 µM), the MIC [8] was 256 µg/mL (≈ 987 µM) and the MIC [9] was > 100 µg/mL. The CC50 (in vitro) was > 50 µg/mL.

In the case of `NC(=O)c1ncn([C@@H]2O[C@H](CO)[C@@H](O)[C@H]2O)n1` [RIB, ribavirin, reference compound], the “Cytotoxicity MCC (minimum cytotoxic concentration)” value (Vero cell cultures) is reported as >250.

Converted amounts (≈) assume the structure as drawn.
